Data reported in patent EP2914280B1, “SOMATOSTATIN-DOPAMINE CHIMERIC ANALOGS” (IPSEN PHARMA S.A.S., priority 2012, dated 2014).

By UniProt entry, the sequences of proteins in these tests, tags left out. Where a name states a change or a piece, a line headed by the entry shows the natural chain unless it says otherwise.
UniProt P30874: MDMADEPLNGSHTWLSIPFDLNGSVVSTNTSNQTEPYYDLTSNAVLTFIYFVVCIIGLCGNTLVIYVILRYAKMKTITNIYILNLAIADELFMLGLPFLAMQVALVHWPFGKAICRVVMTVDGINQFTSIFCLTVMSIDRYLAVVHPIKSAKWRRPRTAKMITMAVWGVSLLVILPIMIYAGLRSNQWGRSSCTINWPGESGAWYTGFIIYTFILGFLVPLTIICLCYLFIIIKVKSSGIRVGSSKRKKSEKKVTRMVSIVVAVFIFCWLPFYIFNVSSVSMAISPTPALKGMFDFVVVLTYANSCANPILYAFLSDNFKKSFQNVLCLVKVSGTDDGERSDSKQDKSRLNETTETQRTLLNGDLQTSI

Target: T1, hSSTR2 (Homo sapiens, UniProt P30874)
T1 construct: host or cells: 'Cells expressing hSSTR2'
Assay: Intracellular calcium mobilization assay (FLIPR Calcium 4), hSSTR2;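 further: agonist activity measured in cells expressing hSSTR2, seeded in 384-well plates, loaded with Calcium 4 dye, read-out as rise in intracellular calcium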
Type: cell-based
Conditions: p value (Student's t-test, one-tailed) < 0.05; receptor not named

Substance | improvement in EC50 over Reference Compound A
Dop1-psi(CH2NH)-cyclo(DLys-Arg-Phe-4Pal-DTrp-Lys-Thr-Tyr) [Compound 7] | statistically significant improvement in EC50
Dop1-psi(CH2NH)-cyclo(DLys-Arg-Phe-Phe-DTrp-Lys-Thr-4FPhe) [Compound 6] | statistically significant improvement in EC50
